These are literature values, as cited in patent US11077184B2 (priority 2011, dated 2021).

For the data set the following is noted: human, in vivo; cited from earlier work.

For the substance “tripalmitoyl-S-glyceryl-cysteine [Pam3Cys]”, the reported side effects entry is “no reported side effects”.
